The data set can be described thus: Ignition and explosive tests. To be noted: for Vapor pressure: temperature 20 ° C.

`CC(=O)CC(C)C`: the Flash point is 18 °C, the Ignition point turned out to be 449 °C and the Vapor pressure was 16/20 mmHg.
For `CCCCOC(C)=O`, the Flash point is 22 °C, the Ignition point is 425 °C and the Vapor pressure is 7.8/20 mmHg.

The values are drawn from patent publication US6645682B2, “Thinner for rinsing photoresist and method of treating photoresist layer” (dated 2003).
